This is a selection; strong and weak results do not stand in their true shares. Some structures show a salt or complex split into parts, the way the source records it. Activity calls are given as the source filed them. Cut-off read from the data, not from the text of the source: active = inhibition above about 50%; inconclusive = no clear call, values can overlap the other calls; inactive = below that.
test: PubChem AID 1554; conditions: BJeLR (HRASV12) viability, CellTiter-Glo ATP luminescence, 48 h; stronger effect = higher value; concentration not given here

Compound | inhibition
CP(=O)(Nc1ccc(Cl)cc1Cl)Oc1ccccc1 (stereo not given) | inactive: -14.2%
Nc1cccc2ccc([As](=O)(O)O)cc12 | inactive: 1.48%
Cc1nc2ccc3ccccc3c2o1.O=[N+]([O-])c1cc([N+](=O)[O-])c(O)c([N+](=O)[O-])c1 | inactive: 2.83%
O=[N+]([O-])c1cc([N+](=O)[O-])c(CCN2CCOCC2)c([N+](=O)[O-])c1 | inactive: 1.24%
CN(C(=O)Cc1ccc(Cl)c(Cl)c1)[C@H]1CCCC[C@@H]1N1CCCC1 | inactive: 4.35%
Cc1ccc(NP(=O)(Oc2ccccc2F)Oc2ccccc2F)nc1 | inactive: 0.17%
COc1ccccc1OP(C)(=O)Nc1ccc(C)c(C)c1 (stereo not given) | inactive: 8.05%
CCOP(=O)(Nc1ccccc1)OCC | inactive: 5.11%
Cc1cc(SC(NC(=O)c2ccc(F)cc2)C(Cl)(Cl)Cl)ncn1 (stereo not given) | inactive: -6.47%
COc1ccc(OP(C)(=O)Nc2ccccc2Br)cc1 (stereo not given) | inactive: -3.56%
O=C(O)c1ccccc1[As](=O)(O)O | inactive: 0.894%
CC(=O)Nc1ccc([As](=O)(O)O)cc1 | inactive: -0.0559%
Cc1cc(C)cc(OP(C)(=O)Nc2cccc(C(F)(F)F)c2)c1 (stereo not given) | inactive: -8.16%
O=P(Nc1nc2ccc(Cl)cc2s1)(c1ccccc1)c1ccccc1 | inactive: 2.35%
CP(=O)(Nc1ccccc1)Oc1ccc(F)cc1 (stereo not given) | inactive: -9.87%
CN(C)C(=O)Oc1noc2ccccc12 | inactive: -1.66%
CCCCCOc1ccc(NP(C)(=O)Oc2ccc(Cl)cc2Cl)cc1 (stereo not given) | inactive: 0.756%
O=[N+]([O-])c1cc([N+](=O)[O-])c(OC2CCCCC2O)c([N+](=O)[O-])c1 (stereo not given) | inactive: -11.3%
Cc1ccccc1OP(=O)(Nc1ccccn1)Oc1ccccc1C | inactive: -2.4%
Cc1ccc(OP(=O)(Nc2ccccn2)Oc2ccc(C)cc2)cc1 | inactive: -1.99%
CC(=O)NC(SC(=S)N(CC(C)C)CC(C)C)C(Cl)(Cl)Cl (stereo not given) | inactive: 0.404%
COC(=O)c1cc2c(s1)N=C(c1ccccc1)N(C)P2(=O)N1CCOCC1 (stereo not given) | inactive: -13%
CCC(=O)N1C2C3N(C(=O)CC)C1C1N(C(=O)CC)C(C(N1C(=O)CC)N3C(=O)CC)N2C(=O)CC | inactive: 1.85%
CCN(CC)CCCOC(=O)C(O)(c1ccccc1)C1CCCCC1 (stereo not given) | inactive: -6.96%
O=C(OC1CN2CCC1CC2)c1ccccc1 (stereo not given) | inactive: -8.07%

Compound | inhibition
CCOC(=O)c1ccc(NP(C)(=O)Oc2ccc(F)cc2)cc1 (stereo not given) | inactive: 14.1%
COc1ccc(OP(C)(=O)Nc2ccc(SC(F)(F)F)cc2)cc1 (stereo not given) | inactive: 2.12%
O=C(NC1CCS(=O)(=O)C1)NP(=S)(Oc1ccccc1)Oc1ccccc1 (stereo not given) | inactive: 0.578%
CCNC(=S)/N=C(\N)N[N+](=O)[O-] | inactive: -1.45%
CCOC(=O)NC(Sc1ccccc1)C(Cl)(Cl)Cl (stereo not given) | inactive: 2.68%
Cc1ccc(NP(=O)(Oc2cccc(C)c2)Oc2cccc(C)c2)nc1 | inactive: -1.1%
c1ccc(-c2nn[nH]n2)c(-c2nn[nH]n2)c1 | inactive: 1.07%
CC(=O)Nc1ccc(Oc2c([N+](=O)[O-])cc([N+](=O)[O-])cc2[N+](=O)[O-])cc1 | inactive: -6.82%
COc1ccc2c(c1O)-c1c(O)c(OC)cc3c1[C@H](C2)[N+](C)(C)CC3.O=[N+]([O-])c1cc([N+](=O)[O-])c([O-])c([N+](=O)[O-])c1[O-] | inactive: -3.82%
CC(=O)Nc1ccc([As](=O)(O)O)c(O)c1 | inactive: -3.46%
O=C(OC1CN2CCC1CC2)c1ccc([N+](=O)[O-])cc1 (stereo not given) | inactive: 3.06%
CC(=O)c1ccc(N2CC2c2ccncc2)cc1 (stereo not given) | inactive: 3.57%
C[C@@H]1C=CCP(=O)(Oc2ccccc2)O1 (stereo not given in full) | inactive: 1.78%
C[C@H]1OP(=O)(Oc2ccccc2)C[C@@H]2O[C@@H]21 (stereo not given in full) | inactive: -2.09%
O=C(OCCN1CCN(CCOCc2ccccc2)CC1)C(O)(c1ccccc1)c1ccccc1 | inactive: -2.67%
CP(=O)(Nc1ccccc1F)Oc1ccccc1 (stereo not given) | inactive: 12.6%
CC(C)c1ccc(OP(C)(=O)Nc2ccc(SC(F)(F)F)cc2)cc1 (stereo not given) | inactive: -10.9%
CC(C)(C)C(=O)NC(Sc1ccccc1)C(Cl)(Cl)Cl (stereo not given) | inactive: -7.19%
CCOc1ccc(C2=NCC(CBr)S2)cc1 (stereo not given) | inactive: 1.01%
O=P1(Nc2nc3ccc(Cl)cc3s2)COc2ccccc2O1 (stereo not given) | inactive: -3.17%
Cc1ccccc1NP(C)(=O)Nc1ccccc1C | inactive: -2.87%
CP(=O)(Nc1ccc2c(c1)OCCO2)Oc1ccccc1 (stereo not given) | inactive: -5.8%
CCOP(C)(=S)SCC(=O)NC(C)(CC)C(=O)O (stereo not given) | inactive: -4%
c1nnnn1CCn1cnnn1 | inactive: 0.658%
CP(=O)(Nc1ccc(SC(F)(F)F)cc1)Oc1ccc(F)cc1 (stereo not given) | inactive: -9.11%

Source: PubChem BioAssay AID1554 (Broad Institute, 2009)
